Experimental data taken from US7615359B2, “Copolymer 1 related polypeptides for use as molecular weight markers and for therapeutic use” (Yeda Research and Development Co., Ltd., priority 1998, dated 2009).

Tested on: SC-14 human Cop 1 specific T cell clone
Test: Proliferation of Cop 1 specific T cell line (3H-thymidine uptake)
Conditions: 10 µg antigen; relative to Cop 1

Row | Molecule | 3H-Thymidine incorporation, % Cop1, SC-14 [%]
1 | AKKYAKKEKAYAKKAEKAAKKAEAKAYKAAEAKKKAEAKYKAEAAKAAAKEAAYEA [TV-56] | 117
2 | glatiramer acetate [compound 55396, reference compound] | 107
3 | AKKYAKKEKAAKKAYKKEAKAKAAEAAAKEAAYEA [TV-35] | 0
4 | glatiramer acetate [compound 55296, reference compound] | 95
5 | AKKYAKKEKAYAKKAEKAAKKAEAKAYKAAEAKKKAKAEAKKYAKAAKAEKKEYAAAEAKYKAEAAKKAYKAEAAKAAAKEAAYEA (peptide) AKKYAKKEKAYAKKAEKAAKKAEAKAYKAAEAKKKAKAEAKKYAKAAKAEKKEYAAAEAKYKAEAAKKAYKAEAAKAAAKEAAYEA | 65
6 | AKKYAKKEKAYAKKAEKAAKKAEAKAYKAAEAKKKAKAEAKKYAKAAKAEKKEYAAAEAKYKAEAAKAAAKEAAYEA (peptide) AKKYAKKEKAYAKKAEKAAKKAEAKAYKAAEAKKKAKAEAKKYAKAAKAEKKEYAAAEAKYKAEAAKAAAKEAAYEA | 83
